{
  "source": "patent US9035085B2",
  "about": "“Aryl ketone compounds and compositions for delivering active agents” (EMISPHERE TECHNOLOGIES, INC., priority 2004, dated 2015)",
  "conditions": "oral dosing with human insulin alone (no delivery agent); previous experiments",
  "experimental": "Oral dosing (PO) compositions of delivery agent compound and human zinc insulin (minimum 26 IU/mg available from Calbiochem—Novabiochem Corp, La Jolla, Calif.) were prepared in deionized water. […] The solution was vortexed, then heated (about 37° C.) and sonicated. The pH was adjusted to about 7 to 8.5 with NaOH or HCl. […] About 1.25 mg insulin from an insulin stock solution (15 mg/ml made from 0.5409 g insulin and 18 ml deionized water, adjusting with HCl and NaOH to pH 8.15 and to obtain a clear solution using 40 ml concentrated HCl, 25 ml 10N NaOH and 50 ml 1N NaOH) was added to the solution and mixed by inverting.\nThe typical dosing and sampling protocols were as follows. […] A dosing group of five animals was administered one of the dosing solutions. […] The syringe was filled with dosing solution by drawing the solution through the catheter, which was then wiped dry. The catheter was placed down the esophagus leaving 1 cm of tubing past the incisors. The dosing solution was administered by pressing the syringe plunger.\nThe five values for each time point were averaged and the results plotted as serum insulin concentration versus time.",
  "data": [
    {"substance": "human insulin", "values": [
      {"measurement": "Serum human insulin levels", "value": "no measurable levels"}
    ]}
  ]
}
